Measured values taken from US8383697B2 (priority 2009, dated 2013).
This is a selection: effects in other tests are not listed, and their absence says nothing.

How the values were obtained:
rats = conditions: cited from earlier work
[1] = at 22° C.; cited from earlier work
[2] = Thermal stability of initiators by dynamic DSC; conditions: dynamic DSC up to 300° C.

CCC(C)(OO)OOC(C)(CC)OO (stereo not drawn)
Rat Oral LD50 (rats): 484 mg/kg | Water Solubility [1]: 0.1-0.5 g/100 mL at 22 °C | Thermal stability (in words) [2]: most thermally stable
